This assay addresses Phosphatidylinositol 4,5-bisphosphate 3-kinase catalytic subunit alpha isoform (Homo sapiens, UniProt P42336, H1047R).

Amino acid sequences for entries named in this document (tags omitted).
UniProt P42336, whole entry H1047R: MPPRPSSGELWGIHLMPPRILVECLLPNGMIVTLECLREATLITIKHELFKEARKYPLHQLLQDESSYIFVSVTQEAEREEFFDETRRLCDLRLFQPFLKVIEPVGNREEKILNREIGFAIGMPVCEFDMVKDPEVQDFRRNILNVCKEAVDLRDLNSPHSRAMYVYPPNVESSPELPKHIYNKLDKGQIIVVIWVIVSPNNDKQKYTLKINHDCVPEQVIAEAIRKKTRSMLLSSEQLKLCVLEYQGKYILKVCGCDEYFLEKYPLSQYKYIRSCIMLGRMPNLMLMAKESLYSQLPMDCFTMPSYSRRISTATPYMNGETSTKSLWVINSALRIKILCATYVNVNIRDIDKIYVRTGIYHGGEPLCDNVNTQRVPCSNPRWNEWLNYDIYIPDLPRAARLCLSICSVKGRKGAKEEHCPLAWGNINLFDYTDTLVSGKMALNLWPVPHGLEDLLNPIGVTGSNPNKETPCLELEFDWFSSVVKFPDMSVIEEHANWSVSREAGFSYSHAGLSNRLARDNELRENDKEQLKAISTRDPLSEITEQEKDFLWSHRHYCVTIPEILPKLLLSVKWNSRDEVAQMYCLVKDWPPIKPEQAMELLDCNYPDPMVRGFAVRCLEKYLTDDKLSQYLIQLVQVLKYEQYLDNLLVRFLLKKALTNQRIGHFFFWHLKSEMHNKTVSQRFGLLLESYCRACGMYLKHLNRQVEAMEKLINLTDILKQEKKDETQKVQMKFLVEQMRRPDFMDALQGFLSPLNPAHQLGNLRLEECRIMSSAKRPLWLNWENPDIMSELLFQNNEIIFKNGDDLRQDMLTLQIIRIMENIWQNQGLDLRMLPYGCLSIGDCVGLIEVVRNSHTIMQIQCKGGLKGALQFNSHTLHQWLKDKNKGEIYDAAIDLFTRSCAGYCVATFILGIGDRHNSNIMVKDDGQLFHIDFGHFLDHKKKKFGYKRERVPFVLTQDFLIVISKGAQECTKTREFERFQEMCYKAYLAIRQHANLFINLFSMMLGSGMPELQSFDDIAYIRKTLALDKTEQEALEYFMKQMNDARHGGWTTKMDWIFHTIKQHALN

As for `Cc1nc(-c2cn3c(n2)-c2ccc(-c4cnn(C(C)(C)C(N)=O)c4)cc2OCC3)n(C(C)C)n1` [TASELISIB], the half-maximal effective concentration (EC50) is 0.024 µM.

One may read the EC50 as the concentration giving half of the maximal effect. A low value points to higher potency in that assay.

The values are drawn from ChEMBL document CHEMBL5150064 (J Med Chem, 2022).
